This is an account of results in US20110105389A1 (priority 2009, published 2011).

Chains of the proteins cited; added tags and fusions are not shown.
UniProt Q92847, whole entry: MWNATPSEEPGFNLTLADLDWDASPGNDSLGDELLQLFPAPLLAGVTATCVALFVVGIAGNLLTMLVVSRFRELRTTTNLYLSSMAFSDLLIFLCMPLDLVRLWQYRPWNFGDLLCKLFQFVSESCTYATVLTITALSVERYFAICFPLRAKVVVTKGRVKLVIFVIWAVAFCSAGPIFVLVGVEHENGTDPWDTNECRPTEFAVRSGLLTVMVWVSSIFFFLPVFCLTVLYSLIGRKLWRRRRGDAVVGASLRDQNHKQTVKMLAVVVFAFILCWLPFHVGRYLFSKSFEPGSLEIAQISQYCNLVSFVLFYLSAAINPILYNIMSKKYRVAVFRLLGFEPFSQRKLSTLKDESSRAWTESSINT

Each structure is given as a SMILES string.

In the test the target is human ghrelin receptor (GRLN, growth hormone secretagogue receptor, hGHS-R1a) (Homo sapiens, UniProt Q92847). The test is described as follows: Competitive radioligand binding assay (ghrelin receptor), Method B1. The conditions noted are these: Ghrelin receptor binding activity.

`CC[C@@H]1CCc2cccnc2OCCN[C@@H](C2(C)CC2)C(=O)N(C)[C@@H](C(C)O)C(=O)N[C@H](Cc2ccccc2)C(=O)N1` (single isomer, unassigned) had an IC50 of 100 to 500 nM.
The figure for `CC(O)[C@H]1C(=O)N[C@H](Cc2c[nH]c3ccccc23)C(=O)NC2CCC(C2)c2ccccc2OCCN[C@@H](C2(C)CC2)C(=O)N1C` (single isomer, unassigned) is 10 to 100 nM.

For orientation: IC50 means the concentration at which inhibition is half-maximal. A high value points to lower potency.
